For the assay, the target named is Sterol O-acyltransferase 1 / ACAT1 (Homo sapiens) (UniProt P35610). In words: Inhibition of human ACAT1.

What is called IC50 is the midpoint of a concentration-inhibition curve. A high value points to weaker potency in that assay. For the molecule `Cc1ccc2[nH]c(-c3ccc(-c4ccc(O[C@H]5CC[C@H](C(=O)O)CC5)nc4)nc3)nc2n1`, the IC50 came out at 8.78 µM. In other words, the single-digit micromolar range.
Take `Cc1ccc2[nH]c(-c3ccc(-c4ccc(O[C@H]5CC[C@@H](C(=O)O)CC5)nc4)nc3)nc2n1`: the IC50 was greater than 10 µM.

These data come from BindingDB's records for doi:10.1021/ml400168h (Merck Research Laboratories, 2013).
